For 2 compounds, max response, negative = inhibition results are on record in PubChem BioAssay AID720504 (National Center for Advancing Translational Sciences (NCATS), 2013).

Amino acid sequences for entries named in this document (tags omitted).
UniProt P53350, whole entry: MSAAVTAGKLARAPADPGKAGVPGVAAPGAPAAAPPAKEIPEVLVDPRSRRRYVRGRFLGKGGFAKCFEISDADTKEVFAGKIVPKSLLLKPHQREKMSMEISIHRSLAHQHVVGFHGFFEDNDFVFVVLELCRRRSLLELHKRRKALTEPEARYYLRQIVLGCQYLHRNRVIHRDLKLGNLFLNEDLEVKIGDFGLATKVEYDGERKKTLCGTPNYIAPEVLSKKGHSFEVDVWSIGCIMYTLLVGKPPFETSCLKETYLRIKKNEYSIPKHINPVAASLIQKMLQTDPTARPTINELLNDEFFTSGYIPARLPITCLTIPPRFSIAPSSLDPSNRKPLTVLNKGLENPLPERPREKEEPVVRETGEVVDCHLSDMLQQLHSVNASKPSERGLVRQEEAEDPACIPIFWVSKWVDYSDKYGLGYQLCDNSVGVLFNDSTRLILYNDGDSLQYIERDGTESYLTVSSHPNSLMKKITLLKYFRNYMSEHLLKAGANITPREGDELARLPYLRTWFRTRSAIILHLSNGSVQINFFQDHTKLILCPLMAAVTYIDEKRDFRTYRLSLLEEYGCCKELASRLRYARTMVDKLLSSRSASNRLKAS

This is a selection; strong and weak results do not stand in their true shares. Inconclusive results are not listed. Activity calls are given as the source filed them. Calls come from the whole dose curve; as a rule, active = well fitted inhibition curve with a large enough effect; inconclusive = small, poorly fitted or top-dose-only effect; inactive = flat fitted curve, though single readings scatter.
% is set by controls: 0 for no effect and ±100 for the full control effect.

In this experiment the target is Serine/threonine-protein kinase PLK1 (Homo sapiens) (UniProt P53350). The experiment can be described thus: qHTS for Inhibitors of PLK1-PDB (polo-like kinase 1 - polo-box domain): Primary Screen. Note: series mostly up to about 57 µM; nearly all actives have a fitted effect of over 65% in size. As to conditions: Plk1 PBD binding of FITC phosphopeptide, fluorescence polarization. Background: In qHTS, concentration-response curves come from the screen itself.
Regarding `CCC(=O)N(c1ccccc1)C1(COC)CCN(CCc2cccs2)CC1`, the max response, negative = inhibition was inactive: -6.48%. As for `CCC(=O)N(c1ccccc1)C1(COC)CCN(CCn2nnn(CC)c2=O)CC1`, the figure is inactive: -4.64%.
